{
  "source": "paper PMC5296733",
  "about": "“Functional Coupling of Human Microphysiology Systems: Intestine, Liver, Kidney Proximal Tubule, Blood-Brain Barrier and Skeletal Muscle” (Scientific Reports, 2017)",
  "origin": "cited, not measured here",
  "conditions": "Table 2, clinical; cited from earlier work",
  "data": [
    {"smiles": "CC(C)(C(=O)O)c1ccc(C(O)CCCN2CCC(C(O)(c3ccccc3)c3ccccc3)CC2)cc1", "note": "(stereo not shown) [Fexofenadine, fexofenadine, reference compound]", "values": [
      {"measurement": "Intestine fate, Clinical", "value": "Fex CounterTrans"}
    ]}
  ]
}
